Values quoted from earlier work as cited in article PMC6957207.

Molecular target: CaMKII 300-312 (UniProt P11275)

calmodulin (from UniProt P0DP23)
Kd: 5.9 µM
